Experimental findings from patent US20240217973A1, “IMIDAZOPYRIDINE COMPOUNDS AND USE THEREOF” (MEDSHINE DISCOVERY INC., priority 2021, published 2024) are described below.

Protein sequences, listed by entry. Tags and fused reporters are not part of them.
UniProt Q06187, whole entry: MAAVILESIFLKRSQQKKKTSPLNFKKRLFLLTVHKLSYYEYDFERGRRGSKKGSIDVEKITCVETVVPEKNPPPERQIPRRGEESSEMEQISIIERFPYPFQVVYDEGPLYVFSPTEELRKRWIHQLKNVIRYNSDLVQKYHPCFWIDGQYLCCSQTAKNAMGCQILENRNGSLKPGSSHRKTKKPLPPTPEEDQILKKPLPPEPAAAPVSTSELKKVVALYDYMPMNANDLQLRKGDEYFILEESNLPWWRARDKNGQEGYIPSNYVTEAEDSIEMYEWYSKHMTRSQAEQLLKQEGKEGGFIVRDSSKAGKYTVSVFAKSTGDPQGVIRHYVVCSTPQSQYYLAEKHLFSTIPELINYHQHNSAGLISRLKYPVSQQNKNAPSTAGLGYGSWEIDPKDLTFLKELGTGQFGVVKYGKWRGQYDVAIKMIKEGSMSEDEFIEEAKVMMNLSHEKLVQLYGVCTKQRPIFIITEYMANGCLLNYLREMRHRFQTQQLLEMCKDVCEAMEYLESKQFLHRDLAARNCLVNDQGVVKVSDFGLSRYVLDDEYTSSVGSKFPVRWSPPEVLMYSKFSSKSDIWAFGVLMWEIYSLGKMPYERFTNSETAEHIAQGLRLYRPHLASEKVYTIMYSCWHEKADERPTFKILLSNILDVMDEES

For one series, the target named is BTK kinase (Homo sapiens (Human), UniProt Q06187). The experiment in a line: BTK kinase experiment (ADP-Glo). The following applies: read-out: BTK IC50; 2 μM ATP, PolyE4Y1 substrate, 30 minutes pre-incubation. As to the method:
BTK kinase, PolyE4Y1 substrate and Kinase assay buffer III were purchased from Signalchem; ADP-Glo Kinase Assay was purchased from Promega; Nivo multi-label analyzer (PerkinElmer).
1× buffer preparation (which was prepared and used immediately): Kinase assay buffer III was diluted with ddH2O to 1× assay buffer for later use.
The compound to be tested was diluted with 100% DMSO to 10 μM as the first concentration, and followed by a 5-fold dilution to the 8th concentration using a multi-channel pipette, i.e., it was diluted from 10 μM to 0.128 nM.
Each gradient of the compound to be tested was diluted into a working solution with 5% DMSO using 1× buffer, 1 μL/well was added to the corresponding well, and a double-replicate well experiment was set up. 2 μL of BTK enzyme (4 ng) was add to each well and incubating at 25° C. for 30 minutes. After the incubation was completed, 2 μL of a mixture of substrate and ATP (2 μM ATP, 0.2 μg/μL PolyE4Y1) was added to each well and incubating at 25° C. for 120 minutes. At this point, the final concentration gradient of the compound was diluted from 100 nM to 0.00128 nM. […] After reacting at 25° C. for 30 minutes, PerkinElmer Nivo multi-label analyzer was used to read the chemiluminescence, and the integration time was 0.5 seconds. […]

The nature of series [1]: Pharmacokinetic evaluation of compounds in rats. The following applies: SD rats. The procedure: Experimental purpose: To test the in vivo pharmacokinetic data of compounds in SD rats.
The compound was mixed with the solvent 5% DMSO/5% Solutol/90% H2O, vortexed and sonicated to prepare a 0.5 mg/mL clear solution. The rats were administered the candidate compound solution intravenously. Whole blood was collected for a certain period of time, and plasma was prepared. The drug concentration was analyzed by LC-MS/MS method, and pharmacokinetic parameters were calculated.
The compound was mixed with the solvent 5% DMSO/5% Solutol/90% H2O, vortexed and sonicated to prepare a 2 mg/mL clear solution. The rats were administered candidate compound solutions orally. Whole blood was collected for a certain period of time, and plasma was prepared. The drug concentration was analyzed by LC-MS/MS method, and pharmacokinetic parameters were calculated.

The nature of series [2]: Pharmacokinetic evaluation of compounds in dogs. The settings on record: beagle dogs. As to the method: Experimental purpose: To test the in vivo pharmacokinetic data of compounds in beagle dogs.
The compound was mixed with the solvent 5% DMSO/5% Solutol/90% H2O, vortexed and sonicated to prepare a 0.5 mg/mL clear solution. The beagle dogs were administered the candidate compound solution intravenously. Whole blood was collected for a certain period of time, and plasma was prepared. The drug concentration was analyzed by LC-MS/MS method, and pharmacokinetic parameters were calculated.
The compound was mixed with the solvent 5% DMSO/5% Solutol/90% H2O, vortexed and sonicated to prepare a 0.5 mg/mL clear solution. The beagle dogs were administered candidate compound solutions orally. Whole blood was collected for a certain period of time, and plasma was prepared. The drug concentration was analyzed by LC- MS/MS method, and pharmacokinetic parameters were calculated.

The subject of series [3] is plasma proteins. The experiment in a line: Plasma protein binding experiment (PPB), M. The following applies: 2 μM, 4 hours dialysis. As to the method:
(§1) Experimental operation: 995 μL of blank plasma of each genus was taken, 5 μL of working solution of test compound (400 μM) or working solution of warfarin (400 μM) was added, so that the final concentrations of the test compound and warfarin in the plasma sample was 2 μM. The sample was mixed thoroughly. The final concentration of the organic phase DMSO was 0.5%; 50 μL of plasma samples of the test compound and warfarin were pipetted into the sample receiving plate (three parallels), and the corresponding volume of the corresponding blank plasma or buffer was immediately added so that the final volume of each sample well was 100 μL, with a volume ratio of 1:1 for plasma: dialysis buffer, and then 500 μL of stop solution was added to these samples, and these samples would be used as a T0 sample for the recovery and stability determination. […] All samples were analyzed by LC/MS/MS after protein precipitation, and the protein binding rate and recovery rate were calculated by the formula: % Unbound=100*F/T, % Bound=100−% Unbound, % Recovery 100*(F+T) T0 (where F was the peak area ratio of the compound in the dialysate after 4 hours of dialysis; T was the peak area ratio of the compound in the plasma after 4 hours of dialysis, and T0 was the peak area ratio of the compound in the plasma sample at zero time).

For series [4], the system named is plasma proteins. Description: Plasma protein binding experiment (PPB), C. The settings on record: 2 μM, 4 hours dialysis. As to the method: as §1
Setting [5] is: IV, 1.0 mg/kg (002), 0.85 mg/kg (003B).
The mark [6] stands for this setting: PO, 9.2 mg/kg (002), 8.4 mg/kg (003B).
[7] abbreviates: IV, 0.49 mg/kg (002), 0.5 mg/kg (003B).

For the molecule `Nc1nccc2c1n(-c1ccc(Oc3ccccc3)cc1)c(=O)n2C1CCN(C(=O)/C=C/CF)C1` (single isomer, unassigned) [Compound 003B], the IC50 (commonly the concentration needed to halve the response being measured) on BTK kinase came to 1.9 nM. In series [1] (setting [5]), this molecule had an AUC0-inf of 0.705 µM·h, a C0 of 2200 nM, a Cl of 50.2 mL/min/kg and a T1/2 of 19.2 min. For the same molecule, in series [1] (setting [5]), the Vd (in general, a proportionality between amount in the body and measured concentration, not a real space) is given as 1.16 L/kg. Further, in series [1] (setting [6]), the AUC0-inf was 2.117 µM·h; the Cmax – broadly, the peak of the concentration-time curve – is 1120 nM; the F % was found to be 30.0%; the T1/2 was 93.6 min. Moreover, the time to peak (Tmax) (in general, the time at which the peak concentration occurs) in series [1] (setting [6]) was 22.8 min. In series [2] (setting [7]), this molecule returned an AUC0-inf of 0.557 µM·h, a C0 of 451 nM, a Cl of 31.9 mL/min/kg and a T1/2 of 68.4 min. This molecule yielded a Vd in series [2] (setting [7]) of 2.49 L/kg. In addition, in series [2] (PO, 2.0 mg/kg), the AUC0-inf was 2.247 µM·h, the Cmax came to 724 nM, the F % is listed as 101% and the T1/2 was 60 min. In addition, the time of peak concentration (Tmax) in series [2] (PO, 2.0 mg/kg) stood at 37.8 min. Further, in the series on plasma proteins [3], the “Unbound PPB” value stood at 1.8%. Moreover, the “Unbound PPB” value in the series with plasma proteins [4] was found to be 9.5%.
